# Source: PubChem BioAssay AID588590 (National Center for Advancing Translational Sciences (NCATS), 2011)
# Amino acid sequences for entries named in this document (tags omitted).
# UniProt Q9UNA4, whole entry: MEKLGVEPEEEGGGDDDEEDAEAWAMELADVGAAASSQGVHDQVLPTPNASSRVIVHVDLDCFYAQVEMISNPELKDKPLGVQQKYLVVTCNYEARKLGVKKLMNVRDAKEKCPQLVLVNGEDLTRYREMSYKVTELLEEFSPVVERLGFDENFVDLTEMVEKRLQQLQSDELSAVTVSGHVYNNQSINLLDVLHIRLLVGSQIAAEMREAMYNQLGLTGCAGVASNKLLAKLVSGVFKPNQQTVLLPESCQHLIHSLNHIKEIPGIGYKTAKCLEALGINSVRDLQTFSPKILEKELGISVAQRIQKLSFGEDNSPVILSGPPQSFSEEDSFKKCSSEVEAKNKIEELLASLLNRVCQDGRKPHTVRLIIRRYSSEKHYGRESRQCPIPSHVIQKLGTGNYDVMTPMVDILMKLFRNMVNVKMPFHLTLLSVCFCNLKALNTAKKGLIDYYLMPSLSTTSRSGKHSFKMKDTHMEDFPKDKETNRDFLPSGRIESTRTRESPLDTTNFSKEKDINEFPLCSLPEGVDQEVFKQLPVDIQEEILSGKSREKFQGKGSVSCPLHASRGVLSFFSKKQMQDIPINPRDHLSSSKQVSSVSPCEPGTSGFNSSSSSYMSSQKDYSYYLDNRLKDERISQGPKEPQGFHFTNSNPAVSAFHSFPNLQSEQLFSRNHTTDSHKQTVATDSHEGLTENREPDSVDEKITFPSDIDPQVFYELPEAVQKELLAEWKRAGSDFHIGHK
# Values joined by “and” are separate entries in the source; they are usually repeats but may differ in a detail not shown here. Equal values may be shown once. This is a selection; strong and weak results do not stand in their true shares. Some results for these compounds are left out of this collection, so the calls shown say nothing about other tests. Results filed as inconclusive are left out. Active and inactive are the calls of the source. Calls follow the shape of the dose curve; as a rule, active = well fitted inhibition curve with a large enough effect; inconclusive = small, poorly fitted or top-dose-only effect, or another doubt; inactive = no such curve, though single readings can be large or run the other way.
# Biological target: DNA polymerase iota (Homo sapiens) (UniProt Q9UNA4)
# Assay: qHTS for Inhibitors of Polymerase Iota
# Details: Pol iota fluorescent replication assay, 10 min; at 115 µM (top of the series)
row,Compound,"activity, negative = inhibition"
1,CN(C)C1(CNC(=O)c2ccc(Br)cc2)CCCCC1,inactive: -22.7%
2,COc1cc(C(=O)NCC2(N(C)C)CCCCC2)c([N+](=O)[O-])cc1OC,inactive: -28.6%
3,COc1ccc(C(=O)NCC2(N(C)C)CCCCC2)cc1Cl,inactive: 18%
4,COc1ccc(Cl)cc1C(=O)NCC1(N(C)C)CCCCC1,inactive: 162%
5,COc1cccc(C(=O)NCC2(N3CCCCC3)CCCCC2)c1,inactive: 79%
6,O=C(NCC1(N2CCCCC2)CCCCC1)c1cccc(Cl)c1,inactive: 11.2%
7,O=C(OC1CN2CCC1CC2)C(CO)(c1ccccc1)c1ccccc1 (centres undefined),inactive: -2.73%
8,COc1cccc(C(=O)NCC2(N3CCOCC3)CCCCC2)c1,inactive: 6.87%
9,CC(C)COc1ccc(C(=O)NCC2(N(C)C)CCCCC2)cc1,inactive: 21.1%
10,COc1ccc(Br)c(C(=O)NCC2(N3CCCCC3)CCCCC2)c1,inactive: 0.779%
11,COc1cc(C(=O)NCC2(N(C)C)CCCCC2)cc(OC)c1OC,inactive: 23.8%
12,Cc1cccc(C(=O)NCC2(N(C)C)CCCCC2)c1,inactive: 42.5%
13,CN(C)c1cccc(C(=O)NCC2(N(C)C)CCCCC2)c1,inactive: 11.7%
14,O=C(OCCN1CCCC1)C(O)(c1ccccc1)c1ccccc1,inactive: 94.7%
15,CC(C)Oc1ccc(C(=O)NCC2(N(C)C)CCCCC2)cc1,inactive: 25.1% and inactive: 141%
16,O=C(NCC1(N2CCCCC2)CCCCC1)c1cc([N+](=O)[O-])ccc1Cl,inactive: 24.6%
17,CN1[C@@H]2CC[C@H]1CC(OC(=O)C(O)(c1ccccc1)c1ccccc1)C2 (some centres undefined),inactive: 15.9%

row,Compound,"activity, negative = inhibition"
1,CC(C)N1C(=O)CC2(CCN(CCOC(=O)C(O)(c3ccccc3)c3ccccc3)CC2)C1=O,inactive: 12.4%
2,COc1cc(SC)ccc1C(=O)NCC1(N(C)C)CCCCC1,inactive: -17.2%
3,CN(C)C1(CNC(=O)c2cccc(Cl)c2)CCCCC1,inactive: 34.1%
4,CCN(CC)CC(C)C(C)OC(=O)C(O)(c1ccccc1)c1ccccc1 (centres undefined),inactive: 37.3%
5,CN(C)C1(CNC(=O)c2ccccc2F)CCCCC1,inactive: 25.3%
6,CN(C)c1ccc(C(=O)NCC2(N(C)C)CCCCC2)cc1,inactive: 156%
7,CN(C)C1CCCC1OC(=O)C(O)(c1ccccc1)c1ccccc1 (centres undefined),inactive: -7.16%
8,Cc1ccccc1C(=O)NCC1(N2CCCCC2)CCCCC1,inactive: 12.5%
9,CN(C)C1(CNC(=O)c2ccccc2[N+](=O)[O-])CCCCC1,inactive: 37.6%
10,CCCCOc1ccccc1C(=O)NCC1(N(C)C)CCCCC1,inactive: 1.35%
11,O=C(NCC1(N2CCCCC2)CCCCC1)c1cc(F)c(F)cc1Cl,inactive: 180%
12,C=CCN1CCN(CCOC(=O)C(O)(c2ccccc2)c2ccccc2)CC1,inactive: -20.7%
13,O=C(NCC1(N2CCCCC2)CCCCC1)c1cccc(Br)c1,inactive: 29.5%
14,CCN1CCCC(OC(=O)C2(O)c3ccccc3C=Cc3ccccc32)C1 (centres undefined),inactive: 2.06%
15,Cc1cc(C(=O)NCC2(N3CCCCC3)CCCCC2)ccc1[N+](=O)[O-],inactive: 51.7%
16,CCOc1cccc(C(=O)NCC2(N(C)C)CCCCC2)c1,inactive: 12.1%
17,COc1ccc(C(=O)NCC2(N(C)C)CCCCC2)cc1,inactive: 18.2%
